Laboratory results: US8318741B2, “Therapeutic compositions and methods” (The Texas A & M University System, priority 2005, dated 2012)

Test: LD50 determination / acute oral toxicity
Set-up: species or system mice
Conditions: both sexes, mouse, in vivo, 20 g/kg, orally
Protocol: LD50 determination: For each dose, 20 mice of either sex, weighing 18-20 g were used to determined the LD50 according to the method of Litchfield & Wilcoxon, J. Pharmacol. Exp. Ther. 96:99-113 (1949). Animals were housed in an animal room at 25° C. and 70% relative humidity. The light cycle was set for 12 h light and 12 h darkness. CK-17 was grounded with Tween 80 and then suspended in 1% CMC (carboxymethyl cellulose).

CC1(Br)CSC(=Nc2ccccc2)N(c2ccccc2)C1=O (stereo not shown) [CK-17, 5-bromo-5-methyl-3-phenyl-2-phenylimino-1,3-thiazinan-4-one]
LD50 at 7 d: ≥ 20000 mg/kg
